The target in the test is T1, recombinant active AMPK (A1/B1/G2) (Homo sapiens, UniProt Q13131+Q9Y478).
T1 construct: purchased SignalChem (Richmond, BC, Canada)
The experiment in a line: in vitro AMPK kinase assay coupled with ADP-Glo assay. In kind it is biochemical. Background: ADP-Glo turns the ADP formed in a reaction into a luminescent signal.

Protein sequences, listed by entry. Tags and fused reporters are not part of them. Lines headed by an entry give the natural chain unless they say otherwise; changes in a name come on top.
UniProt Q13131: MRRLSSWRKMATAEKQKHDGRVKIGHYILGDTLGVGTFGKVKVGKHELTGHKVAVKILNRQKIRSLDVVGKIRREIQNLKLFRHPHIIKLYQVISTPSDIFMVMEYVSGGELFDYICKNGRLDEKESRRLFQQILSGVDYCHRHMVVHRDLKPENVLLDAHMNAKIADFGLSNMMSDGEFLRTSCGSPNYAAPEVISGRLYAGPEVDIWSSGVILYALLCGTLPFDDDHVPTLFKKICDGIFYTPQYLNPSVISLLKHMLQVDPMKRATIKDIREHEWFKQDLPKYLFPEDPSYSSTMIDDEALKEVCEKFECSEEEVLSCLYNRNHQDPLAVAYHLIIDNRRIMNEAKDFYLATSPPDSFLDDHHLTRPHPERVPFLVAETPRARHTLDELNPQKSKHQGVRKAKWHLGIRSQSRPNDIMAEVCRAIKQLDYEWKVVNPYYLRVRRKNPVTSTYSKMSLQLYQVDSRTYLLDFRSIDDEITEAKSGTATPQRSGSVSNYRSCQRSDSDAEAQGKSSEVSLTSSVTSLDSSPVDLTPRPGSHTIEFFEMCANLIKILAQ
UniProt Q9Y478: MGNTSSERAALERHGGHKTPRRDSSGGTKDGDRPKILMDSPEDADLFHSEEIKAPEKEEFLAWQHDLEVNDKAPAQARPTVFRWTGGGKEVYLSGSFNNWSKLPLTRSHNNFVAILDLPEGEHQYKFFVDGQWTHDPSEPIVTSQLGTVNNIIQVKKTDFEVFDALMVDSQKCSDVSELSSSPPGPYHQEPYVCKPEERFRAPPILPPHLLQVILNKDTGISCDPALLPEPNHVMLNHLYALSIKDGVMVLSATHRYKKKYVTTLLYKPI

This is an account of results in publication PMC5402287, “Glucose-dependent regulation of pregnane X receptor is modulated by AMP-activated protein kinase” (Scientific Reports, 2017).

On to `c1cc(-c2cnn3cc(-c4ccc(OCCN5CCCCC5)cc4)cnc23)ccn1` [Dorsomorphin, 6-[4-(2-piperidin-1-ylethoxy)phenyl]-3-pyridin-4-ylpyrazolo[1,5-a]pyrimidine], for which the IC50 turned out to be 127 nM.

Broadly, the IC50 is the concentration at which inhibition is half-maximal.
